{"source": "patent US20260265262A1", "about": "“CDK2 INHIBITORS AND METHODS OF USING THE SAME” (Cedilla Therapeutics, Inc., priority 2022, published 2026)", "key": {"CDK2/Cyclin E1 [1]": {"molecular_target": "T1, CDK2/Cyclin E1 (Homo sapiens, UniProt P24941)", "experiment": "ADP-Glo Luminescent Kinase Assay (CDK2/E1-37C)", "type": "biochemical", "details": "read-out: ADPGLO (CDK2/E1-37C): IC50; 0.18 nM CDK2/Cyclin E1, 100 μM ATP, 1.5 μM Histone H1, 37° C., 60 min pre-incubation", "method": "Inhibition of CDK2/Cyclin E1 activity by the presence of small molecules was evaluated using ADP-Glo Luminescent Kinase Assay (Promega). Activated CDK2/Cyclin E1 was incubated with its substrate Histone H1 (SignalChem H10-54N) in the kinase reaction buffer (100 μM ATP, 50 mM HEPES pH 7.5, 10 mM MgCl2, 1 mM EDTA, 2 mM DTT, 0.01% Brij35, 0.5 mg/mL BSA). Luminescence was recorded with an Envision plate reader (PerkinElmer).\nDose titrations of inhibitors in 100% DMSO were combined with 0.36 nM CDK2/Cyclin E1 in reaction buffer. The mixtures were incubated for 60 minutes at 37° C. before the addition of ATP and Histone H1 substrate to initiate the kinase reaction. The final conditions were 0.18 nM CDK2/Cyclin E1, 100 μM ATP, and 1.5 μM Histone H1. The reactions were incubated at 37° C. for 90 minutes before being stopped with the addition of ADP-Glo reagent. This mixture was incubated at room temperature for 60 minutes before Kinase Detection Solution is added to generate luminescence. The stopped reactions were analyzed on an Envision plate reader. The conversion ratios were normalized to yield % activity, plotted against compound concentration, and fit to a four-parameter equation to determine the IC50 for each compound."}, "Kuramochi cells": {"tested_on": "Kuramochi cells", "experiment": "IncuCyte cell proliferation assay", "type": "cell-based", "details": "read-out: IncuCyte Kuramochi RB-WT: IC50; Kuramochi cells labeled with mApple-H2B, cell count 0 to 72 hours, 20 μM top concentration", "method": "IncuCyte® assay was used to measure the effect of disclosed compounds on cell proliferation. Fluorescent microscopy images of cells were taken immediately after compound treatment and 72 hours later. Image analysis software was used to obtain cell counts as a function of compound concentration. Kuramochi cells labeled with mApple-H2B were seeded on 384-well assay-ready plates. Plates were placed in an IncuCyte® (Sartorius) and scanned at 0 and 72 hours. IncuCyte® software was used to count the number of fluorescent nuclei in each well. The fold change in cell count from 0 to 72 hours in wells treated with increasing compounds concentrations (10 pts, 1/2 log dilution, 20 μM top concentration) was normalized to DMSO control wells. The normalized cell counts were fit with dose response curves and a […] was calculated."}, "CDK2/Cyclin E1 [2]": {"molecular_target": "T1, CDK2/Cyclin E1", "experiment": "CDK2/Cyclin E1 Caliper LabChip EZ Reader mobility shift assay", "details": "read-out: Caliper Assay (CDK2/CCNE1): IC50; 2.5 nM CDK2/Cyclin E1, 100 μM ATP, 1.5 μM fluorescent peptide, 30 min pre-incubation", "method": "Inhibition of CDK2/Cyclin E1 activity in the presence of compounds of the present disclosure was evaluated using a CaliperLabChip® EZ Reader mobility shift assay. In the assay, CDK2/Cyclin E1 (Eurofins, 14-475) catalyzed the phosphorylation of a fluorescently tagged peptide 5-FAM-QSPKKG-CONH2 (PerkinEliner, FL Peptide 18) which induced a difference in capillary electrophoresis mobility. The peptide substrate and product were measured, and the conversion ratio was used to determine the inhibition (as % activity and IC50 values) of CDK2/Cyclin E1. Reactions contained 50 mM HEPES pH 7.5, 10 mM MgCl2, 1 mM EDTA, 2 mM DTT, 0.01% Brij35, 0.5 mg/mL BSA, 0.1% DMSO, 2.5 nM CDK2/Cyclin E1, 100 μM ATP, and 1.5 μM fluorescent peptide substrate.\nDose titrations of inhibitors in 100% DMSO were combined with 3.25 nM CDK2/Cyclin E1 and 130 μM of ATP in reaction buffer. The mixtures were incubated for 30 minutes before the addition of fluorescent peptide substrate to initiate the kinase reaction. The final conditions were 2.5 nM CDK2/Cyclin E1, 100 μM ATP, and 1.5 μM fluorescent peptide. The reactions were stopped after 100 minutes with the addition of EDTA (400 mM final EDTA concentration). The stopped reactions were analyzed on a Caliper LabChip® EZ Reader II. […]"}}}
{"smiles": "C[C@@H](OCC12CCC(CC1)OC2)[C@@H](COC1CCNCC1)NC(=O)[C@@H]1CN(C(=O)c2cnn(Cc3ccccc3C(=O)O)c2)CC12CN(C(=O)C1(C(F)(F)F)CC1)C2", "values": [{"measurement": "IC50", "setting": "CDK2/Cyclin E1 [1]", "value": "0.5 to 5", "unit": "µM"}, {"measurement": "IC50", "setting": "Kuramochi cells", "value": "> 20", "unit": "µM"}]}
{"smiles": "C[C@@H](OCC1(CO)CC=CCC1)[C@H](NC(=O)[C@@H]1CN(C(=O)c2cncs2)CC12CN(C(=O)[C@H]1CC1(C)C)C2)C(=O)N1CCC(C(F)(F)F)CC1", "note": "(stereo partly drawn)", "values": [{"measurement": "IC50", "setting": "Kuramochi cells", "value": "0.5 to 5", "unit": "µM"}, {"measurement": "IC50", "setting": "CDK2/Cyclin E1 [2]", "value": "< 0.01", "unit": "µM"}]}
{"smiles": "C[C@@H](OCC12CCC(CC1)OC2)[C@H](NC(=O)[C@@H]1CN(C(=O)c2cnn(Cc3ccc(C(F)(F)F)cc3)c2)CC12CN(C(=O)C1(C(F)(F)F)CC1)C2)C(=O)N1CCC(c2ccc3c(c2)CCOC3=O)CC1", "values": [{"measurement": "IC50", "setting": "CDK2/Cyclin E1 [1]", "value": "< 0.5", "unit": "µM"}, {"measurement": "IC50", "setting": "Kuramochi cells", "value": "0.5 to 5", "unit": "µM"}]}
{"smiles": "CNC(=O)C(NC(=O)[C@@H]1CN(C(=O)c2cncs2)CC12CN(CC1CCCO1)C2)[C@@H](C)OCC1(CO)CC=CCC1", "note": "(stereo partly drawn)", "values": [{"measurement": "IC50", "setting": "Kuramochi cells", "value": "> 20", "unit": "µM"}, {"measurement": "IC50", "setting": "CDK2/Cyclin E1 [2]", "value": "0.1 to 1", "unit": "µM"}]}
{"smiles": "C[C@@H](OCC1CCOCC1)[C@H](NC(=O)[C@@H]1CN(C(=O)c2cnn(Cc3ccc(C(F)(F)F)cc3)c2)CC12CN(C(=O)C1(C(F)(F)F)CC1)C2)C(=O)N1CCC2(CC1)COC2", "values": [{"measurement": "IC50", "setting": "CDK2/Cyclin E1 [1]", "value": "0.5 to 5", "unit": "µM"}, {"measurement": "IC50", "setting": "Kuramochi cells", "value": "> 20", "unit": "µM"}]}
{"smiles": "C[C@@H](OCC1CCOCC1)[C@H](NC(=O)[C@@H]1CN(C(=O)c2nccnc2O)CC12CN(C(=O)C1(C(F)(F)F)CC1)C2)C(=O)N1CCC2(CC1)CC2", "values": [{"measurement": "IC50", "setting": "CDK2/Cyclin E1 [1]", "value": "> 10", "unit": "µM"}, {"measurement": "IC50", "setting": "Kuramochi cells", "value": "> 20", "unit": "µM"}]}
